Source: patent US20240206463A1, “AGROCHEMICAL COMPOSITION” (NOURYON CHEMICALS INTERNATIONAL B.V., priority 2021, published 2024)

Test: Diluents lowering the melting point of pelargonic acid: visual appearance (crystal/clear) of pelargonic acid/diluent blends at low temperature
[1] = pelargonic acid 30 wt % + diluent 70 wt %
[2] = pelargonic acid 50 wt % + diluent 50 wt %
[3] = pelargonic acid 65 wt % + diluent 35 wt %
[4] = pelargonic acid 70 wt % + diluent 30 wt %
[5] = pelargonic acid 75 wt % + diluent 25 wt %
[6] = pelargonic acid 80 wt % + diluent 20 wt %, printed in the 0° C. column

**Q.** With `CCCCOP(=O)(OCCCC)OCCCC` as the molecule, how does the “diluent amount required to lower the melting point of pelargonic acid to 0° C. (or lower)” value read?
**A.** 35%

**Q.** What about the “appearance at 0° C.” value [1] of the same molecule?
**A.** Clear

**Q.** And the “appearance at −20° C.” value [1]?
**A.** Clear

**Q.** And the “appearance at 0° C.” value [2]?
**A.** Clear

**Q.** What about the “appearance at −20° C.” value [2] of the same molecule?
**A.** Crystal

**Q.** And the “appearance at 0° C.” value [3]?
**A.** Clear

**Q.** What about the “appearance at −20° C.” value [3] of the same molecule?
**A.** Crystal

**Q.** What about the “appearance at 0° C.” value [4] of the same molecule?
**A.** Crystal

**Q.** And the “appearance at −20° C.” value [4]?
**A.** Crystal

**Q.** And the “appearance at 0° C.” value [5]?
**A.** Crystal

**Q.** What about the “appearance at −20° C.” value [5] of the same molecule?
**A.** Crystal

**Q.** What about the “appearance at −20° C.” value (pelargonic acid 80 wt % + diluent 20 wt %) of the same molecule?
**A.** Crystal

**Q.** What about the “appearance at 5° C.” value [6] of the same molecule?
**A.** Crystal at 5 °C

**Q.** And the “appearance at 10° C.” value [6]?
**A.** clear at 10 °C
